# Data: patent publication US8263607B2, “1-substituted tetrahydroisoquinoline compound” (Astellas Pharma Inc., priority 2007, dated 2012)
# Test system: loperamide-induced bead transit delay
# Test: Spastic constipation model (loperamide-induced colorectal bead transit delay test in mice)
# Type: in vivo, mouse (ddY, male)
# Settings: 3 mg/kg oral, concurrently with loperamide 0.3 mg/kg s.c.; bead excretion time
# Description: A 3-mm diameter glass bead is deeply inserted at a depth of 2 cm into the anus of the mouse (ddY, male, 6 weeks old), and the time taken for excretion of the bead is measured. […] With improving effects on the loperamide-induced bead transit delay, a bowel movement-improving action of the test compound on spastic constipation was evaluated. The test compound was orally administered concurrently with administration of loperamide (30 minutes before the insertion of the bead). The assessment of the test compound was made from calculation of an improvement rate in the bead excretion time of the test compound-treated/loperamide-treated group, by taking the bead excretion time of the non-test compound treated/non-loperamide treated (vehicle-treated/vehicle-treated) group as 100%, and by taking the bead excretion time of the non-test compound treated/loperamide-treated (vehicle-treated/loperamide-treated) group as 0%.
smiles,measurement,value
O=C(CNCC1(O)CCCCC1)N1CCc2ccccc2[C@@H]1C1CCCCC1 [Example 568],Inhibition rate,83%
